Test results as given in patent US6617425B1, “Peptides” (Novartis AG, priority 1996, dated 2003).

Amino acid sequences for entries named in this document (tags omitted). Residues count along the entry.
UniProt P0DJD8, 63-388: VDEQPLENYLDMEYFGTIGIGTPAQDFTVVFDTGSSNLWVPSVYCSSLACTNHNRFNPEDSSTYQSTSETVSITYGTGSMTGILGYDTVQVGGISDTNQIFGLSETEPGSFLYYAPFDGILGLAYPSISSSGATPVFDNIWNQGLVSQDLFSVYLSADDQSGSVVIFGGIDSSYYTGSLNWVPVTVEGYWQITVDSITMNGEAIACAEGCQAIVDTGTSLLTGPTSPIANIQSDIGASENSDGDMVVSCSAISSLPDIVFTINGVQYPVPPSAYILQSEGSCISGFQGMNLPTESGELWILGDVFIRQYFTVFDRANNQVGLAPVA

Target: pepsin (Homo sapiens, UniProt P0DJD8)
Assay: stability to enzymatic cleavage as a substrate for pepsin
Conditions: same conditions for β-peptides and α-peptide comparator

Compound: CC(C)C[C@H](CNC(=O)[C@H](C)CNC(=O)[C@@H](CNC(=O)[C@@H](CNC(=O)[C@H](C)CNC(=O)[C@@H](CN)C(C)C)CC(C)C)C(C)C)C(=O)O [(R)-Aminomethylvalyl-(R)-aminomethylalanyl-(R)-aminomethylleucyl-(R)-aminomethylvalyl-(R)-aminomethylalanyl-(R)-aminomethylleucinate Trifluoroacetate]
- stability as a substrate for pepsin: fully stable for several days

Counter-ions that a name gives are not always drawn.
